“And” between values parts separate entries of the source, which are not always exact repeats. Equal values may be shown once.
B1: Alpha-1-antitrypsin, P01009 (parent)
chain: MPSSVSWGILLLAGLCCLVPVSLAEDPQGDAAQKTDTSHHDQDHPTFNKITPNLAEFAFSLYRQLAHQSNSTNIFFSPVSIATAFAMLSLGTKADTHDEILEGLNFNLTEIPEAQIHEGFQELLRTLNQPDSQLQLTTGNGLFLSEGLKLVDKFLEDVKKLYHSEAFTVNFGDTEEAKKQINDYVEKGTQGKIVDLVKELDRDTVFALVNYIFFKGKWERPFEVKDTEEEDFHVDQVTTVKVPMMKRLGMFNIQHCKKLSSWVLLMKYLGNATAIFFLPDEGKLQHLENELTHDIITKFLENEDRRSASLHLPKLSITGTYDLKSVLGQLGITKVFSNGADLSGVTEEAPLKLSKAVHKAVLTIDEKGTEAAGAMFLEAIPMSIPPEVKFNKPFVFLMIEQNTKSPLFMGKVVNPTQK

Variants of: B1
Details: Homo sapiens, pH 7.8, Tris-HCl 50 mM, NaCl 50 mM, reversible: yes, structure 1QLP, whole UniProt chain shown; for denaturant midpoint (higher = more stable): 25 °C, Urea, Fluorescence, transition: 3; for Tm / change of melting temperature, mutant - wild type (higher = more stable): Thermal, CD

Variant	denaturant midpoint (higher = more stable)	Tm	change of melting temperature, mutant - wild type (higher = more stable)
MPSSVSWGILLLAGLCCLVPVSLAEDPQGDAAQKTDTSHHDQDHPTFNKITPNLAEFAFSLYRQLAHQSNSTNIFFSPVSIATAFAMLSLGTKADTHDEILEGLNFNLTEIPEAQIHEGFQELLRTLNQPDSQLQLTTGNGLFLSEGLKLVDKFLEDVKKLYHSEAFTVNFGDTEEAKKQINDYVEKGTQGKIVDLVKELDRDTVFALVNYIFFKGKWERPFEVKDTEEEDFHVDQVTTVKVPMMKRLGMFNIQHCKKLSSWVLLMKYLGNATAIFFLPDEGKLQHLENELTHDIITKFLENEDRRSASLHLPKLSITGTYDLKSVLGQLGITKVFSNGADLSGVTEEAPLKLSIAVHKAVLTIDEKGTEAAGAMFLEAIPMSIPPEVKFNKPFVFLMIEQNTKSPLFMGKVVNPTQK [K355I]	2.76 M and 5.46 M	61 °C	3 °C
MPSSVSWGILLLAGLCCLVPVSLAEDPQGDAAQKTDTSHHDQDHPTFNKITPNLAEFAFSLYRQLAHQSNSTNIFFSPVSIATAFAMLSLGTKADTHDEILEGLNFNLTEIPEAQIHEGFQELLRTLNQPDSQLQLTTGNGLFLSEGLKLVDKFLEDVKKLYHSEAFTVNFGDTEEAKKQINDYVEKGTQGKIVDLVKELDRDTVFALVNYIFFKGKWERPFEVKDTEEEDFHVDQVTTVKVPMMKRLGMFNIQHCKKLSSWVLLMKYLGNATAIFFLPDEGKLQHLENELTHDIITKFLENEDRRSASLHLPKLSITGTYDLKSVLGQLGITKVFSNGADLSGVTEEAPLKLSFAVHKAVLTIDEKGTEAAGAMFLEAIPMSIPPEVKFNKPFVFLMIEQNTKSPLFMGKVVNPTQK [K355F]	3.04 M	64 °C	6 °C
MPSSVSWGILLLAGLCCLVPVSLAEDPQGDAAQKTDTSHHDQDHPTFNKITPNLAEFAFSLYRQLAHQSNSTNIFFSPVSIATAFAMLSLGTKADTHDEILEGLNFNLTEIPEAQIHEGFQELLRTLNQPDSQLQLTTGNGLFLSEGLKLVDKFLEDVKKLYHSEAFTVNFGDTEEAKKQINDYVEKGTQGKIVDLVKELDRDTVFALVNYIFFKGKWERPFEVKDTEEEDFHVDQVTTVKVPMMKRLGMFNIQHCKKLSSWVLLMKYLGNATAIFFLPDEGKLQHLENELTHDIITKFLENEDRRSASLHLPKLSITGTYDLKSVLGQLGITKVFSNGADLSGVTEEAPLKLSVAVHKAVLTIDEKGTEAAGAMFLEAIPMSIPPEVKFNKPFVFLMIEQNTKSPLFMGKVVNPTQK [K355V]	2.7 M and 5.8 M	62 °C	4 °C
MPSSVSWGILLLAGLCCLVPVSLAEDPQGDAAQKTDTSHHDQDHPTFNKITPNLAEFAFSLYRQLAHQSNSTNIFFSPVSIATAFAMLSLGTKADTHDEILEGLNFNLTEIPEAQIHEGFQELLRTLNQPDSQLQLTTGNGLFLSEGLKLVDKFLEDVKKLYHSEAFTVNFGDTEEAKKQINDYVEKGTQGKIVDLVKELDRDTVFALVNYIFFKGKWERPFEVKDTEEEDFHVDQVTTVKVPMMKRLGMFNIQHCKKLSSWVLLMKYLGNATAIFFLPDEGKLQHLENELTHDIITKFLENEDRRSASLHLPKLSITGTYDLKSVLGQLGITKVFSNGADLSGVTEEAPLKLSTAVHKAVLTIDEKGTEAAGAMFLEAIPMSIPPEVKFNKPFVFLMIEQNTKSPLFMGKVVNPTQK [K355T]	5.32 M	57 °C	-1 °C
MPSSVSWGILLLAGLCCLVPVSLAEDPQGDAAQKTDTSHHDQDHPTFNKITPNLAEFAFSLYRQLAHQSNSTNIFFSPVSIATAFAMLSLGTKADTHDEILEGLNFNLTEIPEAQIHEGFQELLRTLNQPDSQLQLTTGNGLFLSEGLKLVDKFLEDVKKLYHSEAFTVNFGDTEEAKKQINDYVEKGTQGKIVDLVKELDRDTVFALVNYIFFKGKWERPFEVKDTEEEDFHVDQVTTVKVPMMKRLGMFNIQHCKKLSSWVLLMKYLGNATAIFFLPDEGKLQHLENELTHDIITKFLENEDRRSASLHLPKLSITGTYDLKSVLGQLGITKVFSNGADLSGVTEEAPLKLRKAVHKAVLTIDEKGTEAAGAMFLEAIPMSIPPEVKFNKPFVFLMIEQNTKSPLFMGKVVNPTQK [S354R]		52 °C	-4 °C

Source: FireProtDB (doi:10.1016/s0022-2836(02)01221-4)
